Patent US20230099031A1, “BIFUNCTIONAL AGENTS FOR PROTEIN RECRUITMENT AND/OR DEGRADATION” (Orionis Biosciences, Inc., priority 2019, published 2023)

Tested on: IKZF1, ASS1 and SALL4
Assay: Recruitment assessment: recruitment of any tested substrate from among IKZF1, ASS1 and SALL4 (MAPPIT-like recruitment assays)
Type: cell-based
Conditions: any tested substrate among IKZF1, ASS1, SALL4 at any tested concentration

| Structure (SMILES) | Recruitment Assessment |
| --- | --- |
| CC(=O)Nc1cccc2c1CN(C1CCC(=O)NC1=O)C2=O (stereo not drawn) | TRUE |
| O=C1CCC(N2C(=O)C3=C(CCC3)C2=O)C(=O)N1 (stereo not drawn) | FALSE |
| O=C1CCc2cc(C(=O)N3CCCc4ccccc43)cnc2N1 | FALSE |
